Assay: anti-pS4/S8 blot, Flag-RPA2 in 293T, 2 h after Eto
Conditions: glycan gained; control: Eto only

B1: Replication Protein A2 (RPA2, RPA32): Thiamet-G (TMG) (protein)
parent chain: MWNSGFESYGSSSYGGAGGYTQSPGGFGSPAPSQAEKKSRARAQHIVPCTISQLLSATLVDEVFRIGNVEISQVTIVGIIRHAEKAPTNIVYKIDDMTAAPMDVRQWVDTDDTSSENTVVPPETYVKVAGHLRSFQNKKSLVAFKIMPLEDMNEFTTHILEVINAHMVLSKANSQPSAGRAPISNPGMSEAGNFGGNSFMPANGLTVAQNQVLNLIKACPRPEGLNFQDLKNQLKHMSVSSIKQAVDFLSNEGHIYSTVDDDHFKSTDAE
With B1 the “other: RPA2 Ser4/Ser8 phosphorylation” value was “decreases”.

Source: PMC11647514
